Emax data for one compound are collected here from ChEMBL document CHEMBL1131897.

Protein sequences, listed by entry. Tags and fused reporters are not part of them.
UniProt P41143, whole entry, looked up: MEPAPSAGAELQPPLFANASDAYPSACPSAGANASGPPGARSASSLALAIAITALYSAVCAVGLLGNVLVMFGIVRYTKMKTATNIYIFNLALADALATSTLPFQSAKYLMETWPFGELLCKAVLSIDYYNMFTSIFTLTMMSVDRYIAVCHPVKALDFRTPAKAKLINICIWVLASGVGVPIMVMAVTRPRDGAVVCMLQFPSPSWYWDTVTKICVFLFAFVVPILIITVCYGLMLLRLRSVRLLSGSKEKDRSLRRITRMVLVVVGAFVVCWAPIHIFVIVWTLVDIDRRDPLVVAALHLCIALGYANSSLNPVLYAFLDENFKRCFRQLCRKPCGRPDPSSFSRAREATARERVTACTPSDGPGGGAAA

Structures are written as SMILES.

The target of the assay is Delta-type opioid receptor (Homo sapiens) (UniProt P41143). The assay is described as follows: [35S]GTP-gamma-S, induced maximal stimulation ( E max ) Delta opioid receptor in guinea pig caudate membranes blocked with 20 nM NTI. The settings on record: Cavia porcellus. For orientation: Binding of GTPγS marks nucleotide exchange on a G protein.

Turning to `CN(C(=O)Cc1ccccc1)[C@H]1CC[C@@]2(CCCO2)C[C@@H]1N1CCCC1`, the Emax turned out to be 178 nM.
